Laboratory results reported in ChEMBL document CHEMBL4145549, “Potholing of the hydrophobic heme oxygenase-1 western region for the search of potent and selective imidazole-based inhibitors” (Eur J Med Chem, 2018).

Species: Rattus norvegicus
Test: Selectivity index, ratio of IC50 for HO-2 in Sprague-Dawley albino rat brain microsomes to IC50 for HO-1 in Sprague-Dawley albino rat spleen microsomes

c1ccc(CCC2(Cn3ccnc3)OCCO2)cc1
Ratio IC50: > 143
